Experimental findings from patent publication US5688773A, “Method of selectively destroying neoplastic cells” (priority 1994, dated 1997) are described below.

Data set [1] relates to C6-P450 cells. Nature of the data set: Trypsinization and replating assay. The data set is classed as cell-based, rat. Here is the method:
Trypsinization and replating assay: To determine the temporal kinetics of CPA-mediated cytotoxicity, 2×10^6 cells were plated onto each 10 cm dish. Twenty-four hours later, 0.5 mM CPA was added and cells were incubated for the times indicated in each figure. Cells were then trypsinized and replated at a density of 2×10^5 cells/10 cm dish. Nine days later, cell numbers were evaluated by Coulter counting.

For data set [2], the system named is C6-P450 cells. Nature of the data set: Cell proliferation assay.
Data set [3] concerns C6 cells exposed to CM from C6-P450. Kind of data set: C6 colony formation after conditioned medium from drug-exposed cells.

Regarding `CCN(CC)P1(=O)NCCCO1` (stereo not drawn) [DCPA, didechlorocyclophosphamide], in the data set on C6-P450 cells [1], the “Proliferation of treated cells after replating” value was “had no effect”; the “Trypsinization and replating assay, cell count” value turned out to be 21.29±0.17. In the data set on C6-P450 cells [2], the “Cell proliferation assay, number of cells” value is reported as 22.57±0.44 ×10^6 and the “Effect on cell proliferation” value was “had no effect”. In data set [3], the “Secretion effect, C6 colony number” value was 5±0.9 and the “Toxicity of conditioned medium to C6 cell growth / colony formation” value is given as “highly toxic”.
